# In publication PMC3264873 (Pharmaceutical Research, 2011):
# Sequences of proteins named here, by UniProt entry; tags and fusion partners are left off. A change or cut given only in a name is not applied to a line headed by its entry.
# UniProt Q9Y6L6: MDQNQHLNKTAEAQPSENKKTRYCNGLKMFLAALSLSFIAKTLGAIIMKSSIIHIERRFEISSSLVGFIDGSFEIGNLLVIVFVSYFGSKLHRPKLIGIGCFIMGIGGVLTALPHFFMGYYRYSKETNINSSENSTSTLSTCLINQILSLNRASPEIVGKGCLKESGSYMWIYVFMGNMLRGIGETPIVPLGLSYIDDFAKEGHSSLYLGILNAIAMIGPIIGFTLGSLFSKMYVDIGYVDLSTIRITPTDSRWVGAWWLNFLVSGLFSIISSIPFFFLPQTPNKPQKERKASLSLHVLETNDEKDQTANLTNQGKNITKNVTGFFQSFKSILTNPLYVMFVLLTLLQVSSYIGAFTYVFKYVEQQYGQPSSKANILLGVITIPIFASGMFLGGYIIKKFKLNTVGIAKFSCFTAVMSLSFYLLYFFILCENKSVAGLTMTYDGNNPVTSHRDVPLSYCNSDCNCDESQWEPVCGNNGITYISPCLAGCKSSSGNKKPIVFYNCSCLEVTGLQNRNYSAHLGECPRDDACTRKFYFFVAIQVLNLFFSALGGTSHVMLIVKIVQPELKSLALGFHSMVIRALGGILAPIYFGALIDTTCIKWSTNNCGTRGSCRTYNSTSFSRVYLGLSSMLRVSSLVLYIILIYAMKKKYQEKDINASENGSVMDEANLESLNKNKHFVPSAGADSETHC
# Target: OATP1B1 (Homo sapiens, UniProt Q9Y6L6)
# Test: Screening for inhibition of OATP1B1-mediated estradiol-17β-glucuronide uptake
# Details: 20 μM test compound
compound,measurement,value
OCCN(CCO)c1nc(N2CCCCC2)c2nc(N(CCO)CCO)nc(N3CCCCC3)c2n1 [Dipyridamole],Classification as OATP1B1 inhibitor (more than 50% inhibition of E17βG uptake),inhibitors
